This assay has as its target JAK2 (recombinant purified GST-tagged catalytic domain) (Homo sapiens (Human), UniProt O60674). Kind of assay: biochemical.

Chains of the proteins cited; added tags and fusions are not shown. Residues count along the entry.
UniProt O60674, 849-1124: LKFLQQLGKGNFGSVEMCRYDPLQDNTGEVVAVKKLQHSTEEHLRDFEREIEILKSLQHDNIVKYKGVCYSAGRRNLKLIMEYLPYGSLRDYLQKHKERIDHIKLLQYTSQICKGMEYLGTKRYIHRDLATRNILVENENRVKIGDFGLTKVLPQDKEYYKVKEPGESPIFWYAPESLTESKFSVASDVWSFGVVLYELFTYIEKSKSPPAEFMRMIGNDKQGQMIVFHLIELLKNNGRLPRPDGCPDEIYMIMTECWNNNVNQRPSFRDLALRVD

Our source for the IC50 values is patent US8962608B2, “Cycloalkylnitrile pyrazole carboxamides as janus kinase inhibitors” (Merck Sharp & Dohme Corp., priority 2011, dated 2015).

As a reminder, the IC50 is the midpoint of a concentration-inhibition curve.

Structures are written as SMILES.
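Also: biochemical JAK kinase assay with HTRF detection.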

Consider `N#C[C@H]1C[C@@H](C(=O)N[C@@H](C2CC2)C(F)(F)F)CC[C@@H]1n1cc(C(N)=O)c(Nc2ccc(Cl)cc2)n1` (single isomer, unassigned) [Example 35-24, 3-[(4-chlorophenyl)amino]-1-[(1S,2S,4S or 1R,2R,4R)-2-cyano-4-{[(1S)-1-cyclopropyl-2,2,2-trifluoroethyl]carbamoyl}cyclohexyl]-1H-pyrazole-4-carboxamide], for which the IC50 is greater than 500 nM.
